Data as given in patent US10208087B2, “Peptides” (Hoffmann-La Roche Inc., priority 2014, dated 2019).
Structures can show the parent of a compound that is named as a salt.

Protein sequences, listed by entry. Tags and fused reporters are not part of them. Residues count along the entry.
UniProt P56817, 46-501: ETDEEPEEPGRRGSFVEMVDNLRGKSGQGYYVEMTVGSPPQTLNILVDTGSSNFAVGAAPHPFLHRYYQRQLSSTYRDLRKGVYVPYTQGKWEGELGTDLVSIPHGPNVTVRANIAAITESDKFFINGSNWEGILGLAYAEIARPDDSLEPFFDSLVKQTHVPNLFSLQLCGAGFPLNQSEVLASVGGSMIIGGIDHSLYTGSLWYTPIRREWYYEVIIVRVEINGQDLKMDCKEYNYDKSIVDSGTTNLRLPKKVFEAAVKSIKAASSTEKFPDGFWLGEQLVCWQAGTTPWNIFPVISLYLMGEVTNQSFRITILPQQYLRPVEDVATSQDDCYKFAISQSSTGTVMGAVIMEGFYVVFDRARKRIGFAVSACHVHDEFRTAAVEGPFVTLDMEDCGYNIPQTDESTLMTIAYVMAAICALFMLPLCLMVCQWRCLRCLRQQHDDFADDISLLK

Molecular target: T1, BACE1 (Homo sapiens, UniProt P56817)
T1 construct: Human HEK293 cells which are stably transfected with a vector expressing a cDNA of the human APP wt gene (APP695); endogenous in cells; host or cells: HEK293 cells stably transfected with human APP695 wt
Experiment: Cellular Aβ-lowering Assay
Type: cell-based
Method: The compounds were investigated in accordance with the test given hereinafter. Cellular Aβ-lowering Assay: Human HEK293 cells which are stably transfected with a vector expressing a cDNA of the human APP wt gene (APP695) were used to assess the potency of the compounds in a cellular assay. […] After blocking of non-specific binding sites with e.g. 1% BSA and washing, the culture supernatants were added in suitable dilutions together with a horseradish peroxidase-coupled Aβ detection antibody (e.g., antibody 4G8, Senetek, Maryland Heights, Mo.) and incubated for 5 to 7 hrs. Subsequently the wells of the microtiter plate were washed extensively with Tris-buffered saline containing 0.05% Tween 20 and the assay was developed with tetramethylbenzidine/H2O2 in citric acid buffer. After stopping the reaction with one volume 1 N H2SO4 the reaction was measured in an ELISA reader at 450 nm wavelength. The concentrations of Aβ in the culture supernatants were calculated from a standard curve obtained with known amounts of pure Aβ peptide.

SMILES	IC50
CCCCCCCCCCCCCCCC(=O)NCCCC[C@H](NC(=O)[C@H](Cc1ccccc1)NC(=O)[C@H](CCC(=O)O)NC(=O)[C@H](C)NC(=O)[C@@H](NC(=O)C[C@H](O)[C@H](CC(C)C)NC(=O)[C@H](CC(N)=O)NC(=O)[C@@H](NC(=O)[C@H](CCC(=O)O)NC(=O)[C@H](CO)NC(=O)CNC(=O)CNC(=O)[C@H](CC(C)C)NC(=O)[C@@H]1CCCN1C(=O)[C@@H](NC(=O)[C@H](Cc1ccccc1)NC(=O)[C@H](Cc1ccc(O)cc1)NC(=O)[C@@H]1CCCN1C(=O)[C@@H](N)Cc1ccc(O)cc1)[C@@H](C)CC)C(C)C)C(C)C)C(N)=O [Example 10, Tyr-Pro-Tyr-Phe-Ile-Pro-Leu-Gly-Gly-Ser-Glu-Val-Asn-Sta-Val-Ala-Glu-Phe-Lys(Palmityl)-NH2 x TFA]	0.053 µM
CCCCCCCCCCCCCCCC(=O)NCCCC[C@H](NC(=O)[C@H](Cc1ccccc1)NC(=O)[C@H](CCC(=O)O)NC(=O)[C@H](C)NC(=O)[C@@H](NC(=O)C[C@H](O)[C@H](CC(C)C)NC(=O)[C@H](CC(N)=O)NC(=O)[C@@H](NC(=O)[C@H](CCC(=O)O)NC(=O)CNC(=O)CNC(=O)CNC(=O)[C@H](CC(C)C)NC(=O)[C@@H]1CCCN1C(=O)[C@@H](NC(=O)[C@H](Cc1ccccc1)NC(=O)[C@H](Cc1ccc(O)cc1)NC(=O)[C@@H]1CCCN1C(=O)[C@@H](N)Cc1ccc(O)cc1)[C@@H](C)CC)C(C)C)C(C)C)C(N)=O [Example 1, Tyr-Pro-Tyr-Phe-Ile-Pro-Leu-Gly-Gly-Gly-Glu-Val-Asn-Sta-Val-Ala-Glu-Phe-Lys(Palmityl)-NH2 x TFA]	0.12 µM
CCCCCCCCCCCCCCCC(=O)NCCCC[C@H](NC(=O)[C@H](Cc1ccccc1)NC(=O)[C@H](CCC(=O)O)NC(=O)[C@H](C)NC(=O)[C@@H](NC(=O)C[C@H](O)[C@H](CC(C)C)NC(=O)[C@H](CC(N)=O)NC(=O)[C@@H](NC(=O)[C@H](CCC(=O)O)NC(=O)CNC(=O)CNC(=O)[C@H](C)NC(=O)[C@H](CC(C)C)NC(=O)[C@@H]1CCCN1C(=O)[C@@H](NC(=O)[C@H](Cc1ccccc1)NC(=O)[C@H](Cc1ccc(O)cc1)NC(=O)[C@@H]1CCCN1C(=O)[C@@H](N)Cc1ccc(O)cc1)[C@@H](C)CC)C(C)C)C(C)C)C(N)=O [Example 2, Tyr-Pro-Tyr-Phe-Ile-Pro-Leu-Ala-Gly-Gly-Glu-Val-Asn-Sta-Val-Ala-Glu-Phe-Lys(Palmityl)-NH2 x TFA]	0.053 µM
